Test results published in PubChem BioAssay AID485317 (Broad Institute, 2010).
This is a selection; strong and weak results do not stand in their true shares. Active and inactive are the calls of the source.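 How the source made its calls: active means mean replicate inhibition above about 79%, with every replicate also reaching it (limit read from the data); inconclusive means only one of the two criteria met; inactive means mean below limit and not every replicate reaching it.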

Amino acid sequences for entries named in this document (tags omitted).
UniProt P55789, whole entry: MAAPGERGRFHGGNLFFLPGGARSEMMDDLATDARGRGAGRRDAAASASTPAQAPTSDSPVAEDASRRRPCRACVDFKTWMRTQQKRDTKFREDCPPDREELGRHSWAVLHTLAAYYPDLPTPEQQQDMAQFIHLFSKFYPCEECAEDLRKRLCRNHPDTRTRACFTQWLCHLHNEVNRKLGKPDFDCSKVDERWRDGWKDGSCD

What follows are compounds tested against FAD-linked sulfhydryl oxidase ALR (Homo sapiens) (UniProt P55789) (assay: inhibitors of human ALR sulfhydryl oxidase, primary screen, biochemical, H2O2 detection, HRP-luminol luminescence, single point (AID 485317)). Settings: purified ALR, DTT oxidation, stronger effect = higher value, concentration not given here.

SMILES	inhibition
CN(C(=O)Cc1ccc(Cl)c(Cl)c1)[C@H]1CCCC[C@@H]1N1CCCC1	inactive: -18.3%
